Laboratory results reported in patent publication US11439607B2, “Use of senicapoc for treatment of neuropathic pain” (Paracelsus Neuroscience I, LLC, priority 2016, dated 2022).

Target: human KCa3.1 (Homo sapiens, UniProt O15554)
Test: QPatch electrophysiology on CHO-K1 cells expressing recombinant human KCa3.1
Assay type: cell-based
Settings: read-out: IC50, patch-clamp on CHO-KCa3.1 cells

`NC(=O)C(c1ccccc1)(c1ccc(F)cc1)c1ccc(F)cc1` [Senicapoc] was tested, and the IC50 was 10 nM.
